Measured values from PubChem BioAssay AID686940 (The Scripps Research Institute Molecular Screening Center, 2013).
This is a selection; strong and weak results do not stand in their true shares. The source made the active and inactive calls.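 How the source made its calls: active means inhibition above a per-plate cutoff, mean inhibition of test wells between control levels plus 3 SD (cut at about 38% in these data); inactive means the rest.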

Amino acid sequences for entries named in this document (tags omitted). A change or cut given only in a name is not applied to a line headed by its entry.
UniProt P24468: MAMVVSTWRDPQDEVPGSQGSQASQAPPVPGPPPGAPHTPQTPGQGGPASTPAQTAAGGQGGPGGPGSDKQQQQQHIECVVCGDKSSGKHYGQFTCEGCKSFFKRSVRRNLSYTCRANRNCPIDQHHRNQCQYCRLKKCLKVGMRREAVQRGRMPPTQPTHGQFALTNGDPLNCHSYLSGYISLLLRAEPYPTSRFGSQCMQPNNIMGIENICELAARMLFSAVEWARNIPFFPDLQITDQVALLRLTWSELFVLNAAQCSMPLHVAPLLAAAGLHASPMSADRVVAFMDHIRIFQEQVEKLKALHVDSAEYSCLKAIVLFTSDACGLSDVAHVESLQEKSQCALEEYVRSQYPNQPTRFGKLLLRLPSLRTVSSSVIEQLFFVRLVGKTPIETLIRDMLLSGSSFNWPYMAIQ

biological target: COUP transcription factor 2 (Homo sapiens) (UniProt P24468); assay: COUP-TFII reporter suppression in human cells – cell-based, luciferase reporter, HEK293T, luminescence, primary screen (AID 686940); details: HEK293T NGFI-A luciferase reporter, at 8.6 µM, active compounds read high;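 further: cells cotransfected with COUP-TFII expression vector driving the NGFI-A reporter; 0% = median of COUP-TF2 test wells and 100% = reporter-only cells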

Row | SMILES | inhibition
1 | O=[N+]([O-])c1ncn(CCn2ncnc2[N+](=O)[O-])n1 | inactive: 17.5%
2 | CC(C)(C)C(=O)NC(Sc1ccncn1)C(Cl)(Cl)Cl (centres undefined) | inactive: -6.4%
3 | O=C(O)CNc1ccc([As](=O)(O)O)cc1 | inactive: 10.2%
4 | O=[N+]([O-])c1cccc(NC2=NCC(CBr)S2)c1 (centres undefined) | inactive: 0.43%
5 | COC(=O)C1(C)COP(=O)(Nc2ccccc2)OC1 (centres undefined) | inactive: 20.8%
6 | O=P1(N(CCCl)CCCl)OCCCS1 (centres undefined) | inactive: 6.49%
7 | O=C(Nc1cc([As](=O)(O)O)ccc1O)c1ccccc1 | inactive: -6.13%
8 | CCN(/C(=N/P(=O)(N1CCOCC1)N1CCOCC1)N1CCOCC1)c1ccc(OC)cc1 | inactive: 6.97%
9 | C[N+]1=C2C=CC=CC=C2SC12C([N+](=O)[O-])=CC([N+](=O)[O-])=C[C-]2[N+](=O)[O-] (centres undefined) | active: 86.5%
10 | Nc1ccc([As](=O)(O)c2ccc(N)cc2)cc1 | inactive: -4.23%
11 | c1cc(-c2nn[nH]n2)ccc1-c1nn[nH]n1 | inactive: -3.16%
12 | CC1CCN(C(=O)Oc2c(Cl)cc(Cl)c3cccnc23)CC1 | inactive: 2.81%
13 | CN(C)C(=O)OCCc1n(C)cc[n+]1C | inactive: 3.59%
14 | CC(C)=N/N=C(\N)N[N+](=O)[O-] | inactive: 2.98%
15 | CC(C)c1nc(Nc2ccccc2)n(P(=O)(N(C)C)N(C)C)n1 | inactive: -9.49%
16 | COc1ccc(C2=NCC(CBr)S2)cc1 (centres undefined) | inactive: 7.2%
17 | CCc1nc2c(n1)c1c(non1O)c1c2no[n+]1[O-] | inactive: -2.93%
18 | O=[N+]([O-])c1cc([N+](=O)[O-])c(CCNc2ccccc2)c([N+](=O)[O-])c1 | inactive: 14.2%
19 | Cc1ccc(NP(=O)(Oc2ccccc2)Oc2ccccc2)nc1 | inactive: -11.1%
20 | O=[N+]([O-])c1cccc2n[nH]nc12 | inactive: 3.67%
21 | CC(=O)N1C2C3N(C(C)=O)C1C1N(C(C)=O)C(C(N1C(C)=O)N3C(C)=O)N2C(C)=O | inactive: -8.21%
22 | O=C(OC1CN2CCC1CC2)c1cccc([N+](=O)[O-])c1 (centres undefined) | inactive: -0.3%
23 | CCOC(=O)c1ccc(NC(=O)C(C)(CCl)SC)cc1 (centres undefined) | inactive: -8.32%
24 | CCC(C)N(CC(C)C)C(=S)SC(NC(C)=O)C(Cl)(Cl)Cl (centres undefined) | inactive: 13.2%
25 | COC(=O)C1(C)COP(=O)(N2CCCC2)OC1 (centres undefined) | inactive: 4.76%
26 | COP1(=S)c2c(C)nn(CCC#N)c2N=C(c2ccc(F)cc2)N1C (centres undefined) | inactive: -5.38%
27 | O=C(O)C(=O)c1ccc(N(CCCl)CCCl)cc1 | inactive: -5.65%

Row | SMILES | inhibition
28 | O=C(Nc1ccncc1[N+](=O)[O-])c1ccc([N+](=O)[O-])cc1[N+](=O)[O-] | inactive: 31.4%
29 | O=C(COc1ccccc1)OC1CN2CCC1CC2 (centres undefined) | inactive: -5.74%
30 | CCOC(=O)Nc1cccc([As](=O)(O)O)c1 | inactive: -6.3%
31 | O=P(Nc1ccccn1)(c1cccc2ccccc12)c1cccc2ccccc12 | inactive: -25.1%
32 | Cc1cc(SC(NC=O)C(Cl)(Cl)Cl)ncn1 (centres undefined) | inactive: -1.67%
33 | O=[N+]([O-])c1ccc(Nc2ccc(Oc3ccc([N+](=O)[O-])cc3[N+](=O)[O-])cc2)c([N+](=O)[O-])c1 | inactive: 20%
34 | CCOC(=O)Nc1ccc([As](=O)(O)O)c(O)c1 | inactive: -2.25%
35 | O=C(O)C(O)c1ccc(N(CCCl)CCCl)cc1 (centres undefined) | inactive: -12.1%
36 | CC1CCNP(=O)(N(CCCl)CCCl)O1 (centres undefined) | inactive: -17.6%
37 | COP(=O)(OC)N1CC1c1ccccc1 (centres undefined) | inactive: -4.21%
38 | Cc1cc(SC(NC(=O)c2ccccc2)C(Cl)(Cl)Cl)nc(C(C)C)n1 (centres undefined) | inactive: 12.2%
39 | CCCCOc1ccc(C(=O)NCC2(N3CCCCC3)CCCCC2)cc1OC | inactive: -10.2%
40 | ClCCSc1nnc(-c2cccnc2)o1 | inactive: -31.1%
41 | CC(C)c1ccc(OP(=O)(Nc2ccccn2)Oc2ccccc2F)cc1 (centres undefined) | inactive: 11%
42 | COC(=O)C1(C)COP(=O)(N2CCCCCC2)OC1 (centres undefined) | inactive: -4.83%
43 | O=C(OC1CN2CCC1CC2)c1cccc2[nH]cnc12 (centres undefined) | inactive: -4.7%
44 | CCN(CC)C(=S)SC(NC=O)C(Cl)(Cl)Cl (centres undefined) | inactive: -0.03%
45 | CC(C)NC(=O)NP(=O)(Oc1ccccc1)Oc1ccccc1 | inactive: -8.74%
46 | COc1cc(C(=O)NCC2(N3CCOCC3)CCCCC2)ccc1OCC(C)C | inactive: 6.3%
47 | O=[N+]([O-])c1ccc(-c2cc([N+](=O)[O-])c(O)c([N+](=O)[O-])c2)cc1 | inactive: 4.1%
48 | C[As](=O)(O)c1cccc(C(=O)O)c1 | inactive: -5.41%
49 | O=[As](O)(c1ccc(O)cc1)c1ccccc1O | inactive: 8.12%
50 | [N-]=[N+]=NC1CCCCC1NC(=O)c1cc([N+](=O)[O-])cc([N+](=O)[O-])c1 (centres undefined) | inactive: -6.44%
51 | Cc1ccc(OP(=O)(Nc2ccc([N+](=O)[O-])cn2)Oc2ccc(C)cc2)cc1 | inactive: 17.2%
52 | Cc1ccc2nc3c(c(C)c2c1)CC(C(Cl)Cl)S3 (centres undefined) | inactive: -9.71%
53 | O=[N+]([O-])c1cc(Oc2ccc([N+](=O)[O-])cc2C(F)(F)F)cc([N+](=O)[O-])c1 | inactive: 22.3%
54 | COc1ccc(N/C(=N/P(=O)(N2CCOCC2)N2CCOCC2)N2CCOCC2)cc1 | inactive: 1.27%
